The values below come from patent US10150766B2, “P2X7 modulators” (Jansssen Pharmaceutica NV, priority 2014, dated 2018).

The chains behind the UniProt entries cited, without tags or fusion partners. Where a name states a change or a piece, a line headed by the entry shows the natural chain unless it says otherwise.
UniProt Q64663: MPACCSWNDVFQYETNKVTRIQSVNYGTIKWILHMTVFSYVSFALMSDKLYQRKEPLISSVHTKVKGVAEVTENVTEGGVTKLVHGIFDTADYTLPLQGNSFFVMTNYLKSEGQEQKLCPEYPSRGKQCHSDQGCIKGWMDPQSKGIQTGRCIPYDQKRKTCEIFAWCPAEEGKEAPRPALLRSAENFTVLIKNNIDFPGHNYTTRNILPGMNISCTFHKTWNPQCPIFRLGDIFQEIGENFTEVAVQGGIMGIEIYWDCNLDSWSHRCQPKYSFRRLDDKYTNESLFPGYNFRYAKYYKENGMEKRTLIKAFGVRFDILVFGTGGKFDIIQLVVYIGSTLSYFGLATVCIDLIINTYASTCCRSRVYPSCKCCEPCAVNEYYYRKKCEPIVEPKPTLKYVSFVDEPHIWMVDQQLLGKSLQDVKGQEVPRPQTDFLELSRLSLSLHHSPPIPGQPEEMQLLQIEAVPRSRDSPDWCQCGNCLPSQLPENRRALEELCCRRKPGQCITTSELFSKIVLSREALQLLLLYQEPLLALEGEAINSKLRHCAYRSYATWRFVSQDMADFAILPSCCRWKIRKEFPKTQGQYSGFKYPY

Usually IC50 stands for the point on the concentration scale where inhibition reaches its midpoint.

The target in the test is rat P2X7 (Rattus norvegicus (Rat), UniProt Q64663). Nature of the test: P2X7 antagonism in recombinant rat P2X7 cells (column headed P2X7 Rat IC50). Type of test: binding. How it is done: The in vitro affinity of the compounds of the invention for the rat and human P2X7 receptor was determined using a human peripheral blood mononuclear cells (PBMCs), a human whole blood assay, a Ca^2+ flux and radioligand binding assay in recombinant human P2X7 cells and recombinant rat P2X7 cells. In Tables 2, when the data cell has been left blank, it is intended to mean that the compound was not tested in that assay. The data represented in Tables 2 may represent a value from a single determination or when the experiment was run more than once, the data represents the average from between 2-12 runs.
human or rat P2X7-1321N1 cells were collected and frozen @ −80° C. On the day of the experiment, cell membrane preparations were made according to standard published methods. The total assay volume was 100 μl: 10 μl compound (10×)+(b) 40 μl tracer (2.5×)+50 μl membrane (2×). The tracer used for the assay was tritiated A-804598. The compound can be prepared as described in the literature. (Donnelly-Roberts, D. Neuropharmacology 2008, 56 (1), 223-229.) Compounds, tracer and membranes were incubated for 1 hour @ 4° C. The assay was terminated by filtration (GF/B filters pre-soaked with 0.3% PEI) and washed with washing buffer (Tris-HCl 50 mM). The IC50 generated in the binding assay was corrected for tracer concentration and affinity of the tracer to derive at the affinity (Ki) of the test compounds. […] Data are analyzed and graphed on Graphpad Prism 5.
Turning to `Cc1nc(-c2ccn[nH]2)c2c(n1)[C@@H]1CCC[C@H](C2)N1C(=O)c1ccc(Cl)cc1Cl` [Example 5, (2,4-dichlorophenyl)((6R,10S)-2-methyl-4-(1H-pyrazol-5-yl)-5,6,7,8,9,10-hexahydro-6,10-epiminocycloocta[d]pyrimidin-11-yl)methanone], the IC50 is greater than 10 µM.

Regarding `Cc1nc(-c2ccn[nH]2)c2c(n1)[C@H]1CCC[C@@H](C2)N1C(=O)c1ccc(Cl)cc1Cl` [Example 20, (2,4-dichlorophenyl)((6S,10R)-2-methyl-4-(1H-pyrazol-5-yl)-5,6,7,8,9,10-hexahydro-6,10-epiminocycloocta[d]pyrimidin-11-yl)methanone], the IC50 came to 11 µM.

Take `Cc1nc(-c2ccc(F)cc2)c2c(n1)[C@@H]1CCC[C@H](C2)N1C(=O)c1ccc(F)c(Cl)c1Cl` [Example 17, (2,3-dichloro-4-fluorophenyl)((6R,10S)-4-(4-fluorophenyl)-2-methyl-5,6,7,8,9,10-hexahydro-6,10-epiminocycloocta[d]pyrimidin-11-yl)methanone]: the IC50 was 1.79 µM.
